Experimental data reported in PubChem BioAssay AID493011 (Sanford-Burnham Center for Chemical Genomics, 2011).
The entries are a selection whose mix differs from that of the whole data set. Active and inactive are the calls of the source.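 The calls were made as follows: active = at least 40% inhibition at 20 µM here, with at most 30% in a related deaminase screen; inactive = the rest.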

By UniProt entry, the sequences of proteins in these tests, tags left out. Where a name states a change or a piece, a line headed by the entry shows the natural chain unless it says otherwise.
UniProt P31941: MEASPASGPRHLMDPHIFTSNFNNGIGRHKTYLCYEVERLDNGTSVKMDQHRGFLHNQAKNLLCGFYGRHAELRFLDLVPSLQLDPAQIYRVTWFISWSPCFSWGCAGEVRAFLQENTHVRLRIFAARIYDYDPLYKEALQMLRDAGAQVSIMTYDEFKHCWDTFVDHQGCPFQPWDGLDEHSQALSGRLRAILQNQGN

The compounds below were run against DNA dC->dU-editing enzyme APOBEC-3A (Homo sapiens) (UniProt P31941) (assay: blockers of A3A cytidine deamination on DNA – biochemical, FAM/TAMRA oligo cleavage fluorescence, selectivity assay for APOBEC3G inhibitor project, primary screen (AID 493011;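 also: plate controls were A3A with DMSO for no effect and wells lacking A3A enzyme for full effect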)). Settings: recombinant A3A, FAM/TAMRA ssDNA deamination fluorescence; at 20 µM; hits give high values.
`CN(C)C(=O)OCCc1n(C)cc[n+]1C` was tested, and the inhibition was inactive: -4.24%. In the case of `CC1CCN(C(=O)Oc2c(Cl)cc(Cl)c3cccnc23)CC1`, the inhibition is reported as inactive: 1.19%. `Nc1ccc([As](=O)(O)c2ccc(N)cc2)cc1` was tested, and the inhibition was inactive: 3.01%. For `C[N+]1=C2C=CC=CC=C2SC12C([N+](=O)[O-])=CC([N+](=O)[O-])=C[C-]2[N+](=O)[O-]` (configuration not stated), the inhibition was inactive: 65.4%. For `CCN(/C(=N/P(=O)(N1CCOCC1)N1CCOCC1)N1CCOCC1)c1ccc(OC)cc1`, the inhibition was inactive: 0.341%. For `O=[N+]([O-])c1cccc2n[nH]nc12`, the inhibition was inactive: -2.78%. In the case of `CC(=O)N1C2C3N(C(C)=O)C1C1N(C(C)=O)C(C(N1C(C)=O)N3C(C)=O)N2C(C)=O`, the inhibition is reported as inactive: -2.69%. For `Cc1ccc(NP(=O)(Oc2ccccc2)Oc2ccccc2)nc1`, the inhibition was inactive: -6.23%. With `CCc1nc2c(n1)c1c(non1O)c1c2no[n+]1[O-]` the inhibition was inactive: -5.16%. With `O=[N+]([O-])c1cc([N+](=O)[O-])c(CCNc2ccccc2)c([N+](=O)[O-])c1` the inhibition was inactive: 4.38%. With `COc1ccc(C2=NCC(CBr)S2)cc1` (configuration not stated) the inhibition was inactive: 2.3%. With `c1nnnn1CCn1cnnn1` the inhibition was inactive: 6.11%. With `CC(C)C(=O)NC(Sc1ccccc1)C(Cl)(Cl)Cl` (configuration not stated) the inhibition was inactive: -0.492%. With `O=P(Nc1nccs1)(c1ccccc1)c1ccccc1` the inhibition was inactive: 4.22%. `C(Cc1nn[nH]n1)Cc1nn[nH]n1` was tested, and the inhibition was inactive: 1.31%. For `O=C(OC1CN2CCC1CC2)c1cccc(Cl)c1` (configuration not stated), the inhibition was inactive: 0.475%. With `O=[N+]([O-])c1ncn(CCn2cnc([N+](=O)[O-])n2)n1` the inhibition was inactive: 4.2%. In the case of `O=P(Nc1nc2ccccc2s1)(c1ccccc1)c1ccccc1`, the inhibition is reported as inactive: 2.52%. In the case of `C[C@H]1OP(=O)(Oc2ccccc2)[C@H](O)[C@H](O)[C@H]1N=[N+]=[N-]` (some centres not stated), the inhibition is reported as inactive: 1.64%. In the case of `O=P(Nc1ccccn1)(c1ccc(Br)cc1)c1ccc(Br)cc1`, the inhibition is reported as inactive: 0.363%. With `CN(C)C1(CNC(=O)c2ccc(Cl)c(S(N)(=O)=O)c2)CCCCC1` the inhibition was inactive: -1.69%. In the case of `Cc1ccccc1OP(=O)(Nc1ccccn1)Oc1ccccc1C`, the inhibition is reported as inactive: 0.568%. For `CC(NC(=O)COC(=O)C(O)(c1ccccc1)c1ccccc1)c1ccccc1` (configuration not stated), the inhibition was inactive: 6.05%. For `CN(C)C(=O)Oc1noc2ccccc12`, the inhibition was inactive: 5.62%. `COC(=O)c1cc2c(s1)N=C(c1ccccc1)N(C)P2(=O)N1CCOCC1` (configuration not stated) was tested, and the inhibition was inactive: -2.81%. `CC(=O)NC(SC(=S)N(CC(C)C)CC(C)C)C(Cl)(Cl)Cl` (configuration not stated) was tested, and the inhibition was inactive: -6.15%. In the case of `O=C(OC1CN2CCC1CC2)c1ccccc1` (configuration not stated), the inhibition is reported as inactive: -4.93%. With `CCC(=O)N1C2C3N(C(=O)CC)C1C1N(C(=O)CC)C(C(N1C(=O)CC)N3C(=O)CC)N2C(=O)CC` the inhibition was inactive: 5.6%. `CCNC(=S)/N=C(\N)N[N+](=O)[O-]` was tested, and the inhibition was inactive: -5.4%. `O=C(NC1CCS(=O)(=O)C1)NP(=S)(Oc1ccccc1)Oc1ccccc1` (configuration not stated) was tested, and the inhibition was inactive: 2.43%. `c1ccc(-c2nn[nH]n2)c(-c2nn[nH]n2)c1` was tested, and the inhibition was inactive: -1.74%. For `Cc1ccc(NP(=O)(Oc2cccc(C)c2)Oc2cccc(C)c2)nc1`, the inhibition was inactive: -3.94%. For `CCOC(=O)NC(Sc1ccccc1)C(Cl)(Cl)Cl` (configuration not stated), the inhibition was inactive: -0.655%. In the case of `CC(=O)Nc1ccc([As](=O)(O)O)c(O)c1`, the inhibition is reported as inactive: -5.3%. In the case of `CC(=O)Nc1ccc(Oc2c([N+](=O)[O-])cc([N+](=O)[O-])cc2[N+](=O)[O-])cc1`, the inhibition is reported as inactive: -1.14%. With `CC(=O)c1ccc(N2CC2c2ccncc2)cc1` (configuration not stated) the inhibition was inactive: 0.084%. In the case of `Cc1ccccc1CN(C)C(=O)COC(=O)C(O)(c1ccccc1)c1ccccc1`, the inhibition is reported as inactive: -0.979%. In the case of `C[C@@H]1C=CCP(=O)(Oc2ccccc2)O1` (some centres not stated), the inhibition is reported as inactive: -1.27%. In the case of `C[C@H]1OP(=O)(Oc2ccccc2)C[C@@H]2O[C@@H]21` (some centres not stated), the inhibition is reported as inactive: -1.26%. `CC(C)(C)C(=O)NC(Sc1ccccc1)C(Cl)(Cl)Cl` (configuration not stated) was tested, and the inhibition was inactive: 2.96%. For `O=P1(Nc2nc3ccc(Cl)cc3s2)COc2ccccc2O1` (configuration not stated), the inhibition was inactive: -1.16%. For `CCOc1ccc(C2=NCC(CBr)S2)cc1` (configuration not stated), the inhibition was inactive: -0.862%.
